Laboratory results reported in EP0326134A1, “4-Amino-2,3-disubstituted-6,7-dihydro-5H-1-pyridine derivatives, process for their preparation and medicaments containing them” (NAUCHNO-ISSLEDOVATELSKY INSTITUT TEKHNOLOGII I BEZOPASNOSTI …, priority 1988, dated 1989).
Like-named read-outs stand apart in the source and are kept apart here.

Sequences of proteins named here, by UniProt entry; tags and fusion partners are left off. Residues count along the entry.
UniProt P22303, 32-617 isoform 2 limits assumed: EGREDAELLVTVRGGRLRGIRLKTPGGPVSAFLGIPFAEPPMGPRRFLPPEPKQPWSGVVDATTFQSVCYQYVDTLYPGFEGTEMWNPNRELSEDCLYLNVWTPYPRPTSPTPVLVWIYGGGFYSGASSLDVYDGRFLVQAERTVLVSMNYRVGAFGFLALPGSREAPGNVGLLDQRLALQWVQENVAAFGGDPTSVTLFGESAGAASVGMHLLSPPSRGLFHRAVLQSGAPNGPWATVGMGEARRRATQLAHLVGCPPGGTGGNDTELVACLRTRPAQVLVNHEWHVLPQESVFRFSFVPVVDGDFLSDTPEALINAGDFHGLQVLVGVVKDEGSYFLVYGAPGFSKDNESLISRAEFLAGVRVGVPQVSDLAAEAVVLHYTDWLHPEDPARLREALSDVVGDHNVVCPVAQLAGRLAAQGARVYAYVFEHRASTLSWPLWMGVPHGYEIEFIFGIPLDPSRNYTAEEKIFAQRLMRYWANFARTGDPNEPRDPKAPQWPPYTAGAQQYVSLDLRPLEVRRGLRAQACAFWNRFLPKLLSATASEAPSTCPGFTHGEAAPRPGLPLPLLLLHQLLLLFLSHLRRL

Assays:
[1] = test system: Nerven-Muskel-Präparat von Mäusen (n.peroneus-m.extensor digitorum longus); assay: Neuromuscular transmission in isolated nerve-muscle preparation (EPP, minEPP); details: for Stimulierung der Nerven-Muskelübertragung, in % der Amplitude: EPP: EPP = Endplattenpotential
[2] = test system: K -Durchlässigkeit der Membrane des Ranvier-Schnürringes; assay: K+ permeability of the node of Ranvier membrane, voltage clamp; set-up: species or system Frosches
[3] = Acute toxicity, single intraperitoneal injection, probit analysis (LD50); details: mice, i.p.
[4] = test system: durch Skopolamin hervorgerufene Amnesie; assay: Dark avoidance assay (passive avoidance), scopolamine-induced amnesia; format: in vivo, Mäusen; details: for antiamnestische Wirkung: in words, compared with Amyridin; for Einfluß auf das Gedächtnis: Zahl der Tiere in %, bei denen die Skopolaminwirkung aufgehoben wurde: mice, compound s.c. 5 min before learning, Skopolamin i.p. 30 min before
[5] = Side effects and CNS/behaviour: tremor (TD50), sedative and m-cholinomimetic effects; format: in vivo; details: for Verhältnis TD50 zu ED50: ED50 = dose blocking the effect of Skopolamin in 50 % of the animals (passive avoidance, mice); for TD50 (Tremor): toxic dose causing tremor in 50 % of the animals
[6] = test system: Na -Durchlässigkeit der Membrane des Ranvier-Schnürringes; assay: Na+ permeability of the node of Ranvier membrane, voltage clamp; set-up: species or system Frosches
[7] = molecular target: Acetylcholinesterase menschlicher Erythrozyten (Homo sapiens, UniProt P22303); assay: Acetylcholinesterase inhibition, spectrophotometric; format: biochemical
[8] = tested form: hemisulfate monohydrate (2:1 H2SO4)

With CCCCc1c(C)nc2c(c1N)CCC2 as the molecule, how does the “Stimulierung der Nerven-Muskelübertragung, in % der Amplitude: EPP” value ([1]; tested form: HCl) read?
Its value is 20%.

What about the “Stimulierung der Nerven-Muskelübertragung, in % der Amplitude: EPP” value ([1]; tested form: hydrate) of the same molecule?
Its value is 22%.

What about the “Stimulierung der Nerven-Muskelübertragung, in % der Amplitude: minEPP” value ([1]; tested form: HCl) of the same molecule?
Its value is 45%.

What about the “Stimulierung der Nerven-Muskelübertragung, in % der Amplitude: minEPP” value ([1]; tested form: hydrate) of the same molecule?
The value was 46%.

And the IC50 ([2]; read-out: Blockierung der K^+-Durchlässigkeit der Membrane Ic50 (Mol), frog sciatic nerve fibres, concentration giving 50 % block of ion permeability, tested form: HCl)?
The IC50 was 8000 µM.

What about the LD50 ([3]; tested form: HCl) of the same molecule?
The LD50 was 26 mg/kg.

And the LD50 ([3]; tested form: hydrate)?
The LD50 was 25 mg/kg.

What about the “antiamnestische Wirkung” value ([4]; tested form: hydrate) of the same molecule?
The value was “antiamnestische Wirkung, welche die von Amyridin etwas übertraf”.

What about the “Einfluß auf das Gedächtnis: Zahl der Tiere in %, bei denen die Skopolaminwirkung aufgehoben wurde” value ([4]; tested form: HCl) of the same molecule?
Its value is 70%.

And the “Einfluß auf das Gedächtnis: Zahl der Tiere in %, bei denen die Skopolaminwirkung aufgehoben wurde” value ([4]; tested form: hydrate)?
The value was 65%.

What about the Verhältnis TD50 zu ED50 ([5]; tested form: HCl) of the same molecule?
Its Verhältnis TD50 zu ED50 is 4.

What about the Verhältnis TD50 zu ED50 ([5]; tested form: hydrate) of the same molecule?
The Verhältnis TD50 zu ED50 was 3.5.

And the “TD50 (Tremor)” value ([5]; tested form: HCl)?
Its value is 11 mg/kg.

What about the “TD50 (Tremor)” value ([5]; tested form: hydrate) of the same molecule?
The value was 13 mg/kg.

What about the IC50 ([6]; read-out: Blockierung der Na^+-Durchlässigkeit der Membrane Ic50 (Mol), frog sciatic nerve fibres, concentration giving 50 % block of ion permeability, tested form: HCl) of the same molecule?
The IC50 was 8500 µM.

What about the Ki ([7]; read-out: Acetylcholinesteraseinhibierung bei menschlichen Erythrozyten IK, (Mol), human erythrocyte enzyme, tested form: HCl) of the same molecule?
The Ki was 15 µM.

Which “Stimulierung der Nerven-Muskelübertragung, in % der Amplitude: EPP” value ([1]; tested form: HCl.H2O) does the source give for CCCCc1nc2c(c(N)c1C)CCC2 here?
Its value is 18%.

And the “Stimulierung der Nerven-Muskelübertragung, in % der Amplitude: EPP” value ([1]; tested form: hydrate)?
Its value is 18%.

What about the “Stimulierung der Nerven-Muskelübertragung, in % der Amplitude: minEPP” value ([1]; tested form: HCl.H2O) of the same molecule?
The value was 40%.

And the “Stimulierung der Nerven-Muskelübertragung, in % der Amplitude: minEPP” value ([1]; tested form: hydrate)?
Its value is 38%.

What about the LD50 ([3]; tested form: HCl.H2O) of the same molecule?
Its LD50 is 17 mg/kg.

What about the LD50 ([3]; tested form: hydrate) of the same molecule?
The LD50 was 15 mg/kg.

And the “antiamnestische Wirkung” value ([4]; tested form: hydrate)?
The value was “antiamnestische Wirkung, welche die von Amyridin etwas übertraf”.

And the “Einfluß auf das Gedächtnis: Zahl der Tiere in %, bei denen die Skopolaminwirkung aufgehoben wurde” value ([4]; tested form: HCl.H2O)?
The value was 68%.

What about the “Einfluß auf das Gedächtnis: Zahl der Tiere in %, bei denen die Skopolaminwirkung aufgehoben wurde” value ([4]; tested form: hydrate) of the same molecule?
Its value is 65%.

What about the Verhältnis TD50 zu ED50 ([5]; tested form: HCl.H2O) of the same molecule?
The Verhältnis TD50 zu ED50 was 2.2.

What about the Verhältnis TD50 zu ED50 ([5]; tested form: hydrate) of the same molecule?
Its Verhältnis TD50 zu ED50 is 1.8.

What about the “TD50 (Tremor)” value ([5]; tested form: HCl.H2O) of the same molecule?
Its value is 6 mg/kg.

What about the “TD50 (Tremor)” value ([5]; tested form: hydrate) of the same molecule?
Its value is 5 mg/kg.

What about the Ki ([7]; read-out: Acetylcholinesteraseinhibierung bei menschlichen Erythrozyten IK, (Mol), human erythrocyte enzyme, tested form: HCl.H2O) of the same molecule?
The Ki was 6.5 µM.

What about the Ki ([7]; read-out: Acetylcholinesteraseinhibierung bei menschlichen Erythrozyten IK, (Mol), human erythrocyte enzyme, tested form: hydrate) of the same molecule?
The Ki was 6.7 µM.

With CCc1nc2c(c(N)c1C)CCC2 as the molecule, how does the “Stimulierung der Nerven-Muskelübertragung, in % der Amplitude: EPP” value [1, 8] read?
Its value is 28%.

And the “Stimulierung der Nerven-Muskelübertragung, in % der Amplitude: minEPP” value [1, 8]?
Its value is 50%.

And the IC50 ([2]; read-out: Blockierung der K^+-Durchlässigkeit der Membrane Ic50 (Mol), frog sciatic nerve fibres, concentration giving 50 % block of ion permeability, tested form: hemisulfate monohydrate (2:1 H2SO4))?
Its IC50 is 300 µM.

And the LD50 [3, 8]?
The LD50 was 40 mg/kg.

What about the “Einfluß auf das Gedächtnis: Zahl der Tiere in %, bei denen die Skopolaminwirkung aufgehoben wurde” value [4, 8] of the same molecule?
Its value is 70%.

And the Verhältnis TD50 zu ED50 [5, 8]?
Its Verhältnis TD50 zu ED50 is 12.

What about the “TD50 (Tremor)” value [5, 8] of the same molecule?
The value was 23 mg/kg.

What about the IC50 ([6]; read-out: Blockierung der Na^+-Durchlässigkeit der Membrane Ic50 (Mol), frog sciatic nerve fibres, concentration giving 50 % block of ion permeability, tested form: hemisulfate monohydrate (2:1 H2SO4)) of the same molecule?
Its IC50 is 330 µM.

What about the Ki ([7]; read-out: Acetylcholinesteraseinhibierung bei menschlichen Erythrozyten IK, (Mol), human erythrocyte enzyme, tested form: hemisulfate monohydrate (2:1 H2SO4)) of the same molecule?
Its Ki is 4.7 µM.
